Consider one compound from patent publication EP4830726A1, “PHARMACEUTICAL COMPOSITION CONTAINING PRMT5 INHIBITOR AND KRAS G12C INHIBITOR” (dated 2026).

In the assay the test system is LU99 MTAP (-/-) deleted cells. Briefly: Test of compounds as single agents, CTG luminescence cell inhibition. As to conditions: single agent, 144 hours.

On to `C=CC(=O)N1CCN(c2nc(OC[C@@H]3CCCN3C)nc3c(F)c(-c4nc(N)cc(C)c4C(F)(F)F)c(Cl)cc23)[C@@H](C)C1`, for which the IC20 amounted to 0.62 nM and the IC50 is 1.7 nM. Besides, for the setting “maximum inhibition rate”, the “Max Inh%” value was 52.9%.
